The target in one assay is DPP8 (Homo sapiens, UniProt Q6V1X1). Put plainly: Inhibition of peptidase activity of purified DPP8, substrate H-Ala-Pro-pNA. Type of assay: biochemical. Further details: the full length DPP8 cDNA of 3.1 kb was cloned into the Xba I site of pcDNA3.1A/V5/His expression vector; His tag (C); made in house; host or cells: COS-7 cells, stably transfected. The settings on record: for Residual activity (% of control): inhibitor 4 mM, 1 mM H-Ala-Pro-pNA, pH 7.4. As for the experimental part:
(§1) Cells (1×10^7) expressing each protein were sonicated in native buffer (50 mM sodium phosphate, 300 mM NaCl), then treated with 700 U DNAse for 20 min at room temperature. DPPIV is expressed at the cell surface, so 1% Triton X-100 was used to solubilize DPPIV/V5/His. Insoluble material was removed by centrifugation. The supernatant was incubated with 1 mL Talon® Metal Affinity Resin (Clontech) following the manufacturer's instructions for a batch/gravity flow procedure. The resin was washed with 50 mM sodium phosphate, containing 300 mM NaCl and 5 mM imidazole, and proteins were eluted using the same buffer containing 150 mM imidazole. Enzyme activity was used to monitor eluted fractions.
Enzyme assays were performed as described previously. Either clarified cell extract from 1×10^4 sonicated COS-7 cells or purified protein derived from 1×10^5 cells was incubated with substrate in 70 μL phosphate buffer, pH 7.4, for 30 min at 37° C., except where otherwise indicated. The specific DPPIV substrates, Gly-Pro-toluenesulfonate, H-Gly-Pro-p-nitroanilide (NA)/HCl (Sigma, St Louis, Mo., USA) and Gly-Pro-7-amino-4-trifluromethylcoumarin (Calbiochem, San Diego, Calif., USA) were tested. Other substrates tested were H-Ala-Pro-pNA/HCl, H-Arg-Pro-pNA acetate salt, H-Lys-Ala-pNA.2HCl, H-Asp-Pro-pNA, H-Ala-Ala-pNA/HCl, H-Ala-Ala-Pro-pNA/HCl, H-Ala-Ala-Phe-pNA, succinyl-Ala-Pro-pNA, H-Ala-Phe-Pro-pNA and Z-Ala-Pro-p-NA from Bachem (Switzerland). H-Ala-Pro-4-methoxyβNA/HCl, Z-Lys-Pro-4-methoxyβNAformate salt, H-Lys-Pro-4-methoxyβNA/HCl, Z-Ala-Pro-4-methoxyβNA, H-Gly-Pro-βNA and H-His-Ser-4-methoxyβNAacetate salt (Bachem) were tested for their ability to stain unfixed transfected cells. All inhibitors were (see Table 2) incubated with each purified enzyme in phosphate buffer, pH 7.4, for 15 min before the addition of substrate. After the addition of 1 mM H-Ala-Pro-pNA substrate for purified DPP8 and 1 mM H-Gly-Pro-pNA substrate for purified DPPIV, samples were incubated for 60 min at 37° C. All enzyme assays were performed in triplicate.

The target in a further assay is DPPIV (Homo sapiens, UniProt P27487). Put plainly: Inhibition of peptidase activity of purified DPPIV, substrate H-Gly-Pro-pNA. The class given is biochemical. The arrangement: His tag; made in house; host or cells: transfected COS-7 cells; solubilised with 1% Triton X-100. The settings on record: inhibitor 4 mM; 1 mM H-Gly-Pro-pNA, pH 7.4. As for the experimental part:
as §1
Enzyme assays were performed as described previously. Either clarified cell extract from 1×10^4 sonicated COS-7 cells or purified protein derived from 1×10^5 cells was incubated with substrate in 70 μL phosphate buffer, pH 7.4, for 30 min at 37° C., except where otherwise indicated. The specific DPPIV substrates, Gly-Pro-toluenesulfonate, H-Gly-Pro-p-nitroanilide (NA)/HCl (Sigma, St Louis, Mo., USA) and Gly-Pro-7-amino-4-trifluromethylcoumarin (Calbiochem, San Diego, Calif., USA) were tested. […]

Two compounds from patent publication US7148338B2, “Nucleic acids encoding dipeptidyl peptidases” (The University of Sydney, priority 1999, dated 2006) can be followed below.

Consider `NCCc1ccc(S(=O)(=O)F)cc1` [AEBSF, 4-(2-aminoethyl)benzenesulfonylfluoride], for which the “Residual activity (% of control)” value on DPP8 was 40 % of control.

Turning to “H-Lys-Pro-OH HCl salt (KP) [peptide that mimics DPP8 substrates]”, the results for the “Residual activity (% of control)” value in the assay with DPPIV and in the assay with DPP8 were 45 % of control and 63 % of control, respectively. Moreover, the “Inhibition of DPP8 enzyme activity (in words)” value with DPP8 (purified DPP8) is listed as “probably competitively inhibited”.
